Assay [1] has as its target Carbonic anhydrase 4 (Homo sapiens) (UniProt P22748). Briefly: Activation of human recombinant carbonic anhydrase 4 lacking 20 amino terminal residues by stopped-flow CO2 hydrase method.
Assay [2] has as its target T1, Carbonic anhydrase 15 (Mus musculus) (UniProt Q99N23).
T1 sequence (whole entry): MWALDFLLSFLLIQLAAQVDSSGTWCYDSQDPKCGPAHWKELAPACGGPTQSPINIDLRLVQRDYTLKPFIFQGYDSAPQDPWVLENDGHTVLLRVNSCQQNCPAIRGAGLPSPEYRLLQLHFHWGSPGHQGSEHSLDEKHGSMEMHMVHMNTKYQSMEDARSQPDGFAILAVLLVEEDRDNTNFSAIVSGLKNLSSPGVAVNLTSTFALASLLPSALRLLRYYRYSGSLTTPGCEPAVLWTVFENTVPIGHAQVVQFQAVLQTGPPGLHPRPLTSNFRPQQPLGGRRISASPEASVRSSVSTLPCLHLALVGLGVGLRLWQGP
In words: Activation of membrane associated mouse recombinant carbonic anhydrase 15 isoform by stopped-flow CO2 hydrase method.

Sequences of proteins named here, by UniProt entry; tags and fusion partners are left off. A change or cut given only in a name is not applied to a line headed by its entry.
UniProt P22748: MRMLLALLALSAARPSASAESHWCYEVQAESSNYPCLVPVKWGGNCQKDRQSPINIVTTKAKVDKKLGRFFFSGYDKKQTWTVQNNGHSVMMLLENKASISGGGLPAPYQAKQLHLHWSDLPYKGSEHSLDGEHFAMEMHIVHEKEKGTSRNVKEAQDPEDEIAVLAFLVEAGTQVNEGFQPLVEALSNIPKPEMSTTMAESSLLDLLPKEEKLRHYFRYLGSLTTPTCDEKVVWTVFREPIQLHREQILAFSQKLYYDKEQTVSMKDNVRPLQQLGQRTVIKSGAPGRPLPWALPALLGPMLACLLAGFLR

In the case of `N[C@H](Cc1ccccc1)C(=O)O`, the KA in assay [1] is 49.3 µM; in assay [2], 9.5 µM.

`N[C@@H](Cc1ccccc1)C(=O)O`: the KA worked out at 36.3 µM in assay [1] and 33.4 µM in assay [2].

For the origin of these results see ChEMBL document CHEMBL1136977, “Carbonic anhydrase activators. Activation of the membrane-associated isoform XV with amino acids and amines” (Bioorg Med Chem Lett, 2009).
